Reference: patent publication US20230233696A1, “TRIANTENNARY N-ACETYLGALACTOSAMINE MODIFIED HYDROXYL POLYAMIDOAMINE DENDRIMERS AND METHODS OF USE THEREOF” (Ashvattha Therapeutics, Inc., priority 2019, published 2023)

Target: human angiotensin II AT1 receptor (Homo sapiens, UniProt P30556)
Test: human angiotensin II AT1 receptor (antagonist radioligand) binding assay
Settings: [125I][Sar1-Ile8] angiotensin-II radioligand, cell membrane homogenates
Description: Cell membrane homogenates (8 µg protein) are incubated for 120 min at 37° C. with 0.05 nM [125I][Sar1-Ile8] angiotensin-II in the absence or presence of the test compounds in a buffer containing 50 mM Tris-HCl (pH 7.4), 5 mM MgCl2, 1 mM EDTA and 0.1% BSA. Nonspecific binding is determined in the presence of 10 µM angiotensin II. Following incubation, the samples solution are filtered rapidly under vacuum through glass fiber filters (GF/B, Packard) presoaked with 0.3% PEI and rinsed several times with ice-cold 50 mM Tris-HCl using a 96-sample cell harvester (Unifilter, Packard). The filters are dried then counted for radioactivity in a scintillation counter (Topcount, Packard) using a scintillation cocktail (Microscint 0, Packard).
The results are expressed as a percent inhibition of the control radioligand specific binding. Saralasin is used as the standard reference compound, which is tested in each experiment at several concentrations to obtain a competition curve from which its IC50 is calculated.

Kd: 3 nM
Structure (SMILES): CCCc1nc2c(C)cc(-c3nc4ccccc4n3C)cc2n1Cc1ccc(-c2ccccc2C(=O)O)cc1 [Telmisartan, reference compound]
